Results published in patent US20090105197A1, “Use of Sodium Channel Blocking Compounds and Aspirin in Manufacturing Drugs for Producing Analgesia Synergistically in Mammals” (priority 2001, published 2009).
Values joined by “and” are separate entries in the source; they are usually repeats but may differ in a detail not shown here. Equal entries are not always repeated. Where two headings read alike, the source gives them in different places.

Tested on: acetic acid-induced writhing in mice
Assay type: in vivo, Kunming mice
Conditions: aspirin alone, i.m., probit method
From the text: Kunming mice, 18-22 grams, half male and half female, supplied by the Experimental Animal Center of Beijing University, Medical Branch. Quality Certificate No. 013056. Classification: One.
Tetrodotoxin (TTX), 95% purity, supplied by Nanning Maple Leaf Pharmaceutical Co., LTD., batch no. 0324C. Diluted with citric acid buffer solution to required concentration. Aspirin (ASP), powder, 99% purity, manufactured by Shandong Xinhua Pharmaceutical Factory, batch no. 0005564. Ground and then diluted with 0.5% sodium carboxymethyl cellulose (CMC) solution. Glacial acetic acid, analytical pure, manufactured by Beijing 52952 Chemical Factory, batch no. 991117.
Acetic acid-induced writhing test in mice (Shuyun X U, Rulian BIAN, Xiu CHEN, Methodology of Pharmacology Experiments). […] Solely TTX or ASP was given to mice intramuscularly. For combined groups, drugs were given to both sides of a mouse intramuscularly at a volume of 0.1 mL/10 g, respectively. After 40 minutes, 0.6% glacial acetic acid solution was given intraperitoneally to induce pain. In the following 15 minutes, writhing movements were observed and recorded. […] The writhing inhibition rate was calculated according to the following formula: […]
The half inhibition rate (IDso) was determined by the probit method. […]

CC(=O)Oc1ccccc1C(=O)O [ASP, Aspirin]
ID50 (half inhibition dose) of aspirin: 44.1 mg/kg | ID50 (half inhibition dose) of aspirin (listed as aspirin): 44.1 mg/kg and 44.11 mg/kg
